Earlier results, collected in paper PMC8796384, “Plasma protein binding prediction focusing on residue-level features and circularity of cyclic peptides by deep learning” (Bioinformatics, 2021).

How the values were obtained:
plasma proteins [1] = details: whole-peptide descriptor model trained on small molecules; ref Tajimi et al. (2018)
plasma proteins [2] = tested on: plasma proteins

Question: Which results are given for acetyl-daptomycin?
Answer: predicted %PPB value by Tajimi (plasma proteins [1]): 18%; Exp. %PPB (PPB rate) (plasma proteins [2]; experimental plasma protein binding rate, ref Schneider et al. (2017)): 12%

Question: For daptomycin, which “%PPB50-95” value (plasma proteins [2]; experimental %PPB, below 50% rounded to 50%, above 95% rounded to 95%, DrugBank dataset collected by Tajimi et al. (2018), ref Wishart et al., 2018) is on record?
Answer: 91.5%
